{
  "source": "paper PMC12271536",
  "test": "Inhibitor solubility under ITC conditions",
  "settings": "same conditions as ITC (buffer B); precluded ITC analysis",
  "data": [
    {"smiles": "N#C[C@H](C[C@@H]1CCCNC1=O)NC(=O)[C@H](CC1CC1)NC(=O)c1cc2cccc(Cl)c2[nH]1", "values": [
      {"measurement": "solubility", "value": "poor"}
    ]}
  ]
}
